How the values were obtained:
blood loss = assay: Mouse tail transection blood loss model; format: in vivo; conditions: Treat-V: ASA+rivaroxaban+r-Antidote 0.96 mg/mouse IV; mean±SD
Protocol: Mice (n=5-8/group) were first dosed orally with vehicle or aspirin at ˜100 mg/kg/day for 5 days. Rivaroxaban (50 mg/kg) or vehicle (5 mL/kg) was then dosed orally.
For the mouse tail transection blood loss model, mice (male, C57BL/6, Charles River) were first treated with aspirin at ˜100 mg/kg/day for 5 days via drinking water.

The chains behind the UniProt entries cited, without tags or fusion partners. Residues count along the entry.
UniProt P01008, 33-464: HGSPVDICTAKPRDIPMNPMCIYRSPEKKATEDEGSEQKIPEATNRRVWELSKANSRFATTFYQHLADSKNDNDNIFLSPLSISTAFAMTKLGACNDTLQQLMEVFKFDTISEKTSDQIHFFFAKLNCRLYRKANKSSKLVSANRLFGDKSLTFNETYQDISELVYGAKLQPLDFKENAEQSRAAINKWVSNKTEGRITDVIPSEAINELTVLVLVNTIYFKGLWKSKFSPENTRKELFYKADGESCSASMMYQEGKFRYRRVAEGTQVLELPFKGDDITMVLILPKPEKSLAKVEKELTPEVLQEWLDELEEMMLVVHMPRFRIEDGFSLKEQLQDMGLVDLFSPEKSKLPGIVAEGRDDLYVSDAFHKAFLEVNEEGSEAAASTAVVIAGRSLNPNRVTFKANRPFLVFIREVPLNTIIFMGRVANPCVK

[1] = Anti-fXa activity in mouse plasma after rivaroxaban and r-Antidote; format: in vivo; conditions: Treat-V, r-Antidote 0.96 mg/mouse
Protocol: Anti-fXa activity was measured using an adapted assay using reagents from a commercial Heparin kit (available from Coamatic, DiaPharma). […] Bovine fXa and 52732 fXa substrate were reconstituted according to manufacturer's instructions. The reaction mixture contained 75 μL citrated plasma sample or standard, 50 μL substrate S2732. Following pre-incubation at RT for 30 min, 25 μL, bovine fXa was added to the mixture and residual fXa activity was determined by measuring cleavage of substrate at RT for 5 min. The reaction was quenched by adding 20% acetic acid (50 μL). The standard curves were constructed with known concentrations of each individual anticoagulant.

[2] = test system: activated partial thromboplastin time (aPTT); assay: Activated partial thromboplastin time in rabbit liver laceration model; format: in vivo
Protocol: (§1) Anesthetized rabbits were administered vehicle or 1 mg/kg rivaroxaban via IV bolus injection. […] Blood loss due to rivaroxaban anticoagulation represented approximately 10% of the animal's total blood volume. Total rivaroxaban concentration in plasma was measured by LC-MS/MS. Free fraction of rivaroxaban (non-protein, non-r-Antidote bound) was first separated using ultra-filtration followed by LC-MS/MS quantitation. Anti-fXa activity was measured using a modified chromogenic LMW heparin kit. PT and aPTT was measured using commercial reagents (HemosIL).
(§2) For human in vitro and rat ex vivo experiments, PT was measured using MLA Electra 800 automatic coagulation timer. Innovin was automatically dispensed to plasma samples (100 μL) per manufacturer's instructions. […] For rabbit experiments, PT and aPTT were measured using a Beckman Coulter ACL Elite instrument with HemosIL reagents (available commercially from Instrumentation Laboratories). Whole blood INR (International Normalized Ratio) for animal samples were measured by Hemchron Jr. Signature Cartridges (International Technidyne Corporation) according to manufacturer's instructions.
(§3) Rivaroxaban (1 mg/kg) or vehicle was dosed to anesthetized rabbits by IV bolus over 2 minutes via marginal ear vein catheter. […] Serial blood samples were collected at 0, 30, 35, and 50 minutes post rivaroxaban. Measurements included reduction in blood loss, decrease in unbound rivaroxaban in the plasma using equilibrium dialysis method, anti-fXa activity, PT and aPTT. The method for measuring PT is described previously in Example 6.

[3] = Total and free rivaroxaban concentration in rabbit plasma; format: in vivo; conditions: r-Antidote-treated group
Protocol: as §1, §3

whole blood INR = assay: Whole blood INR in fXa inhibitor infused rats; format: in vivo; conditions: r-Antidote IV bolus 4 mg/rat, sustained by 4 mg/hr infusion; rivaroxaban rats
Protocol: Whole blood INR (mean±SD, n=4/group) was measured by Hemochron Jr microcoagulation system. […] Whole blood INR (mean±SD, n=4/group) is presented. […] Whole blood INR (mean±SD, n=5-6/group) is presented. […] INR=international normalized ratio; min=minute.
as §2
Upon cessation of infusion, coagulation marker in the vehicle treated group decreased gradually due to clearance of circulating inhibitor. […] Baseline values in rat blood correspond to an INR of 2.2 rather than 1, since the cartridges used for measurement are calibrated for human use. […]
Blood sampling catheter patency was maintained by slow infusion of normal saline. […] Total fXa inhibitor concentration was measured by HPLC with tandem mass spectrometry.

[4] = molecular target: T1, ATIII-fondaparinux complex (Homo sapiens, UniProt P01008); assay: Kinetics of fXa inhibition by ATIII-fondaparinux complex with r-Antidote; format: biochemical
T1 construct: purchased Haematologic Technologies
Protocol: The solid lines represent the non-linear fitting of the experimental data with a single exponential decay function.
To further investigate the specific interaction between r-Antidote and ATIII, an evaluation was carried out in a reconstituted system with purified human proteins (fXa, ATIII, fondaparinux). […] The solid lines represent the non-linear fitting of the experimental data with a single exponential decay function. […] The program Dynafit was used to perform kinetic analyses of curves generated using a series of ATIII-fondaparinux and PRT064445 concentrations. This analysis yielded a dissociation constant of 53 nM for PRT064445/ATIII-fondaparinux complex.
Kinetics of fXa inhibition by ATIII and the ATIII-fondaparinux complex were carried out under pseudo-first order reaction conditions where the ATIII concentration exceeded the fXa concentration in the fXa+ATIII reaction. In reactions containing fondaparinux, a limiting amount of fondaparinux was mixed with saturating ATIII concentrations. […] Following initiation of the reaction, 10 μL of reaction mixture were removed at various time points and assayed for residual fXa activity by measuring Spectrozyme-fXa cleavage. fXa activity was normalized by comparing it to the activity at t=0 before addition of either fondaparinux or ATIII (E/Eo).

Phase 2 trial: safety = assay: Phase 2 trial: safety
Text: Pharmacodynamic and safety data are collected through Day 48 and PK through Day 10. A chromogenic assay was used to determine anti-fXa activity.

B1: r-Antidote: processed two-chain polypeptide of SEQ ID NO: 3; modified, catalytically inactive human recombinant fXa lacking the Gla domain (protein)
chain: ANSFLFWNKYKDGDQCETSPCQNQGKCKDGLGEYTCTCLEGFEGKNCELFTRKLCSLDNGDCDQFCHEEQNSVVCSCARGYTLADNGKACIPTGPYPCGKQTLERIVGGQECKDGECPWQALLINEENEGFCGGTILSEFYILTAAHCLYQAKRFKVRVGDRNTEQEEGGEAVHEVEVVIKHNRFTKETYDFDIAVLRLKTPITFRMNVAPACLPERDWAESTLMTQKTGIVSGFGRTHEKGRQSTRLKMLEVPYVDRNSCKLSSSFIITQNMFCAGYDTKQEDACQGDAGGPHVTRFKDTYFVTGIVSWGEGCARKGKYGIYTKVTAFLKWIDRSMKTRGLPKAKSHAPEVITSSPLK
modifications: processed two-chain form
blood loss (blood loss): 163 ± 82 µL | reduction of rivaroxaban anticoagulant activity as measured by anti-fXa activity [1]: > 80% | Activated Partial Thromboplastin Times ([2]; 0 minutes post rivaroxaban): 28 ± 4 s | Activated Partial Thromboplastin Times ([2]; 30 minutes post rivaroxaban (before treatment)): 27 ± 4 s | Activated Partial Thromboplastin Times ([2]; 35 minutes post rivaroxaban): 27 ± 3 s | Activated Partial Thromboplastin Times ([2]; 50 minutes post rivaroxaban): 25 ± 3 s | reduction of aPTT prolongation ([2]; rivaroxaban rabbits (Table 8)): 60% | decrease (reversal) of aPTT ([2]; rivaroxaban rabbits, r-Antidote 75 mg/rabbit, rfVIIa 150 μg/kg): 66% | reduction of unbound fraction of rivaroxaban ([3]; 35 minute): 94% | reduction of unbound fraction of rivaroxaban ([3]; 50 minute): 70% | reversal of whole blood INR (whole blood INR): rapidly and completely reversed to baseline values | Kd ([4]; Dynafit kinetic analysis, purified human proteins, read-out: dissociation constant for PRT064445/ATIII-fondaparinux complex): 53 nM | effect on inhibition of fXa by ATIII ([4]; in the absence of fondaparinux (data not shown)): minimal effect | thrombotic or allergic-type adverse events, serious adverse events, deaths (Phase 2 trial: safety; first dose cohort, 9 subjects): no thrombotic or allergic-type adverse events, serious adverse events, or deaths | TFPI, F1+F2 and D-dimer (Phase 2 trial: safety; in vivo): transient reduction in tissue factor pathway inhibitor (TFPI) and increase in F1+F2, but no change in D-dimer | subjects experiencing one or more adverse events (all mild) (Phase 2 trial: safety; in vivo): 5/9
